Target: hKCa2.3 (Homo sapiens, UniProt Q9UGI6)
Assay: Whole-cell patch-clamp of KCa2.3 currents
Type: cell-based
Details: read-out: EC50 KCa2.3 activation

By UniProt entry, the sequences of proteins in these tests, tags left out.
UniProt Q9UGI6, whole entry: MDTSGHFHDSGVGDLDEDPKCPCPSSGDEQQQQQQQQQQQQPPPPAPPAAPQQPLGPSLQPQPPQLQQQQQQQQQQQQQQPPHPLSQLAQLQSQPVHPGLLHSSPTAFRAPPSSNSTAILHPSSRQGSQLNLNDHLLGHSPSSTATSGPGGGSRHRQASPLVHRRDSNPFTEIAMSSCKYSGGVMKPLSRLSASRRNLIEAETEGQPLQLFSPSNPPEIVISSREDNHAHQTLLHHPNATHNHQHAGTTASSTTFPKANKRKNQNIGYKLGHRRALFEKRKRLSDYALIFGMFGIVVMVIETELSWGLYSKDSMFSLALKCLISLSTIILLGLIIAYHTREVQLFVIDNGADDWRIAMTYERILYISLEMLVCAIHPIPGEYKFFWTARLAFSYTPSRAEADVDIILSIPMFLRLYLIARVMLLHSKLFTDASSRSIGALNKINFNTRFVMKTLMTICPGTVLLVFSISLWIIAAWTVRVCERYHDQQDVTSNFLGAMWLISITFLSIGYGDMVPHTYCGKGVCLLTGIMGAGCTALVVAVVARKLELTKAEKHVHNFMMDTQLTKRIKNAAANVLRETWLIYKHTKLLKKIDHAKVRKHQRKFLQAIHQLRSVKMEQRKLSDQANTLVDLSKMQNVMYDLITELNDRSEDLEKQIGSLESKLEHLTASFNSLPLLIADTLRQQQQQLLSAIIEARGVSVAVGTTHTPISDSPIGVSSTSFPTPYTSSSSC

Question: With Nc1nc2c(ccc3ccccc32)s1 [SKA-31, naphtho[1,2-d]thiazol-2-ylamine] as the compound, how does the EC50 read?
Answer: 2900 nM
